According to patent US8779142B2, “Azabicyclo compound and salt thereof” (Taiho Pharmaceutical Co., Ltd., priority 2009, dated 2014):

Test system: SK-BR-3 cells
Assay: Measurement of cell growth inhibition (crystal violet staining method)
Format: cell-based
Settings: read-out: Cell growth inhibition IC50; breast cancer SK-BR-3 cells, 72 hr culture with test substance

**Q.** With CC(=O)N(c1cc(-n2nc(C(C)C)c3c(-c4cnc5ccccc5c4)ccnc32)ccc1C(N)=O)C1CCNCC1 as the compound, how does the IC50 read?
**A.** 0.01 µM
